Measured values as given in patent US8053603B2, “Tetralone-based monoamine reuptake inhibitors” (Sunovion Pharmaceuticals Inc., priority 2006, dated 2011).

Chains of the proteins cited; added tags and fusions are not shown.
UniProt P31645, whole entry: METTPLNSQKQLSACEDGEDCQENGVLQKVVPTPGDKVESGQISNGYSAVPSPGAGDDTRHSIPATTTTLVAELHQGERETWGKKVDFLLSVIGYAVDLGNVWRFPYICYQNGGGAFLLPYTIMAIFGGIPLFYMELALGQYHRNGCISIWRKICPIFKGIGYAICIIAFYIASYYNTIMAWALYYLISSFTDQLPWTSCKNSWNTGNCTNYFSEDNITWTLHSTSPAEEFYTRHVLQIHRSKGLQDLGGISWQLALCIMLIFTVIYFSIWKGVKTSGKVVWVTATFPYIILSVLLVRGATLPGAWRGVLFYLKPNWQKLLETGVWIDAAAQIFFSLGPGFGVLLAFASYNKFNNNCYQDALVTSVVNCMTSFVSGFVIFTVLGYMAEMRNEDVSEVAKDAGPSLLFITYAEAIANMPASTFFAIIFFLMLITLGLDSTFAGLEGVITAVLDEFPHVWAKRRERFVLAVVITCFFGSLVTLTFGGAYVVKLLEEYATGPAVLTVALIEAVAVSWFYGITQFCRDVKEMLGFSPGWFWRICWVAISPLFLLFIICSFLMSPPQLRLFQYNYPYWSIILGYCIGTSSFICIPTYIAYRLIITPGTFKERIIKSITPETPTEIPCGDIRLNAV
UniProt Q01959, whole entry: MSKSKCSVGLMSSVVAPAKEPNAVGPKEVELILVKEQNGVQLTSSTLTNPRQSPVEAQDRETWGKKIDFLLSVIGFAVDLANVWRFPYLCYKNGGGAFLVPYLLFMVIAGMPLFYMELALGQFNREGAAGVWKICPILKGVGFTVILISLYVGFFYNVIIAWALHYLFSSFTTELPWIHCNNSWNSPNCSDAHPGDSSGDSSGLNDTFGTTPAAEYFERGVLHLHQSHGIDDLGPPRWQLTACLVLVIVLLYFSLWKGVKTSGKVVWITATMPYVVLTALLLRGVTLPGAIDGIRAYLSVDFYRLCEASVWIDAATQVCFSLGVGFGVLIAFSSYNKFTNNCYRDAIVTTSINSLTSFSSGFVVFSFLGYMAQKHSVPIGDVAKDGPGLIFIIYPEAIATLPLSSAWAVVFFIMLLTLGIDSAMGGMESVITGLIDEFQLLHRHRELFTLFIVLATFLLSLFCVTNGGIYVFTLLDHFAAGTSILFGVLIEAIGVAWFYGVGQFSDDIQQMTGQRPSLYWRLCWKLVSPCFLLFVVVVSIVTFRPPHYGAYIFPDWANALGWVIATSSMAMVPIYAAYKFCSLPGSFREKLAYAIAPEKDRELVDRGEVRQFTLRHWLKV
UniProt P23975, whole entry: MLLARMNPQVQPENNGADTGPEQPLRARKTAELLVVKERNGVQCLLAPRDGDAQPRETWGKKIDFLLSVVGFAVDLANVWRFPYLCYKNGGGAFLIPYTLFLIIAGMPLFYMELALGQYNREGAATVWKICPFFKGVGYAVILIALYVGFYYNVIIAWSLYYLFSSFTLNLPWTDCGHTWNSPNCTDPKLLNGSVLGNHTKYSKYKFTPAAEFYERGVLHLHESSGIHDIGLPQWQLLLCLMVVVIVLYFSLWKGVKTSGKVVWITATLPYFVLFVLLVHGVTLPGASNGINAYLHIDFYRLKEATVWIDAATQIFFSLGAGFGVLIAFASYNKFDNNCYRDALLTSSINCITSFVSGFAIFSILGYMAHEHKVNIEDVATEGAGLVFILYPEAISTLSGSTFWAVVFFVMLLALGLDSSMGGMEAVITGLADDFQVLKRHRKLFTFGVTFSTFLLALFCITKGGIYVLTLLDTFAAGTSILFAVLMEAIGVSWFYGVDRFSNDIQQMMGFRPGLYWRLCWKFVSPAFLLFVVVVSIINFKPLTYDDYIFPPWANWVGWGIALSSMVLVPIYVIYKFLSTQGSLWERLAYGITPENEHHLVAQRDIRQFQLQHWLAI

These molecules were tested against T1, recombinant human serotonin transporter (Homo sapiens, UniProt P31645) (assay: Serotonin functional uptake assay for human reuptake transporter). Conditions: Human IC50 (nM) SERT.
T1 construct: expressed in transfected cells; host or cells: HEK-293
Format: cell-based

| SMILES | IC50 |
| --- | --- |
| N[C@H]1Cc2ccccc2[C@H](c2ccc(Cl)c(Cl)c2)C1 (single isomer, unassigned) [Compound 6b, [4-(3,4-dichlorophenyl)-1,2,3,4-tetrahydro-naphthalen-2-yl]-amine] | 1830 nM |
| N[C@H]1Cc2ccccc2[C@H](c2ccc(Cl)c(Cl)c2)C1 (single isomer, unassigned) [Compound 6c, [4-(3,4-dichlorophenyl)-1,2,3,4-tetrahydro-naphthalen-2-yl]-amine] | 84 nM |
| N[C@H]1Cc2ccccc2[C@H](c2ccc(Cl)c(Cl)c2)C1 (single isomer, unassigned) [Compound 6d, [4-(3,4-dichlorophenyl)-1,2,3,4-tetrahydro-naphthalen-2-yl]-amine] | 108 nM |
| CN(C)[C@H]1Cc2ccccc2[C@H](c2ccc(Cl)c(Cl)c2)C1 (single isomer, unassigned) [Compound 8b, [4-(3,4-dichlorophenyl)-1,2,3,4-tetrahydro-naphthalen-2-yl]-dimethylamine] | 108 nM |
| CN(C)[C@H]1Cc2ccccc2[C@H](c2ccc(Cl)c(Cl)c2)C1 (single isomer, unassigned) [Compound 8c, [4-(3,4-dichlorophenyl)-1,2,3,4-tetrahydro-naphthalen-2-yl]-dimethylamine] | 3 nM |
| CN(C)[C@H]1Cc2ccccc2[C@H](c2ccc(Cl)c(Cl)c2)C1 (single isomer, unassigned) [Compound 8d, [4-(3,4-dichlorophenyl)-1,2,3,4-tetrahydro-naphthalen-2-yl]-dimethylamine] | 20 nM |

Same assay, conditions: [3H]serotonin uptake, HEK-293 cells expressing human serotonin transporter; read-out: Human IC50 (nM) SERT

| SMILES | IC50 |
| --- | --- |
| CN[C@H]1Cc2ccccc2[C@H](c2ccc(Cl)c(Cl)c2)C1 (single isomer, unassigned) [Compound 7b, 4-(3,4-dichlorophenyl)-N-methyl-1,2,3,4-tetrahydronaphthalen-2-amine] | 125 nM |
| CN[C@H]1Cc2ccccc2[C@H](c2ccc(Cl)c(Cl)c2)C1 (single isomer, unassigned) [Compound 7c, 4-(3,4-dichlorophenyl)-N-methyl-1,2,3,4-tetrahydronaphthalen-2-amine] | 8 nM |
| CN[C@H]1Cc2ccccc2[C@H](c2ccc(Cl)c(Cl)c2)C1 (single isomer, unassigned) [Compound 7d, 4-(3,4-dichlorophenyl)-N-methyl-1,2,3,4-tetrahydronaphthalen-2-amine] | 107 nM |
| NC[C@@H]1Cc2ccccc2[C@H](c2ccc(Cl)c(Cl)c2)C1 (single isomer, unassigned) [Compound 14b, (4-(3,4-dichlorophenyl)-1,2,3,4-tetrahydronaphthalen-2-yl)methanamine] | 19 nM |
| NC[C@@H]1Cc2ccccc2[C@H](c2ccc(Cl)c(Cl)c2)C1 (single isomer, unassigned) [Compound 14c, (4-(3,4-dichlorophenyl)-1,2,3,4-tetrahydronaphthalen-2-yl)methanamine] | 1 nM |
| NC[C@@H]1Cc2ccccc2[C@H](c2ccc(Cl)c(Cl)c2)C1 (single isomer, unassigned) [Compound 14d, (4-(3,4-dichlorophenyl)-1,2,3,4-tetrahydronaphthalen-2-yl)methanamine] | 61 nM |
| CNC[C@H]1Cc2ccccc2[C@H](c2ccc(Cl)c(Cl)c2)C1 (single isomer, unassigned) [Compound 15b, [4-(3,4-dichlorophenyl)-1,2,3,4-tetrahydro-naphthalen-2-ylmethyl]-methylamine] | 54 nM |
| CNC[C@H]1Cc2ccccc2[C@H](c2ccc(Cl)c(Cl)c2)C1 (single isomer, unassigned) [Compound 15c, [4-(3,4-dichlorophenyl)-1,2,3,4-tetrahydro-naphthalen-2-ylmethyl]-methylamine] | 23 nM |
| CNC[C@H]1Cc2ccccc2[C@H](c2ccc(Cl)c(Cl)c2)C1 (single isomer, unassigned) [Compound 15d, [4-(3,4-dichlorophenyl)-1,2,3,4-tetrahydro-naphthalen-2-ylmethyl]-methylamine] | 16 nM |
| CN(C)CC1Cc2ccccc2C(c2ccc(Cl)c(Cl)c2)C1 (single isomer, unassigned) [Compound 16a, [4-(3,4-dichlorophenyl)-1,2,3,4-tetrahydro-naphthalen-2-ylmethyl]-dimethylamine] | 311 nM |
| CN(C)CC1Cc2ccccc2C(c2ccc(Cl)c(Cl)c2)C1 (single isomer, unassigned) [Compound 16b, [4-(3,4-dichlorophenyl)-1,2,3,4-tetrahydro-naphthalen-2-ylmethyl]-dimethylamine] | 970 nM |
| NCCC1Cc2ccccc2C(c2ccc(Cl)c(Cl)c2)C1 (single isomer, unassigned) [Compound 25a, 2-(1,3-cis)-1-(3,4-dichlorophenyl)-(1,2,3,4-tetrahydronaphthalen-3-yl)ethanamine] | 1 nM |
| CN[C@H]1CCc2ccccc2[C@H]1c1ccc(Cl)c(Cl)c1 (single isomer, unassigned) [Compound 36a, 1-(3,4-dichlorophenyl)-N-methyl-1,2,3,4-tetrahydronaphthalen-2-amine] | 1090 nM |
| CN[C@H]1CCc2ccccc2[C@H]1c1ccc(Cl)c(Cl)c1 (single isomer, unassigned) [Compound 36b, 1-(3,4-dichlorophenyl)-N-methyl-1,2,3,4-tetrahydronaphthalen-2-amine] | 2520 nM |
| CN[C@H]1CCc2ccccc2[C@H]1c1ccc(Cl)c(Cl)c1 (single isomer, unassigned) [Compound 36c, 1-(3,4-dichlorophenyl)-N-methyl-1,2,3,4-tetrahydronaphthalen-2-amine] | 26 nM |
| CN[C@H]1CCc2ccccc2[C@H]1c1ccc(Cl)c(Cl)c1 (stereo in doubt) [Compound 36d, 1-(3,4-dichlorophenyl)-N-methyl-1,2,3,4-tetrahydronaphthalen-2-amine] | 868 nM |

Each molecule was assayed against T2, recombinant human dopamine transporter (Homo sapiens, UniProt Q01959) (assay: Dopamine functional uptake assay for human reuptake transporter). Conditions: read-out: Human IC50 (nM) DAT.
T2 construct: expressed in transfected cells; host or cells: CHO-K1 or HEK293
Format: cell-based

| SMILES | IC50 |
| --- | --- |
| NC[C@@H]1Cc2ccccc2[C@H](c2ccc(Cl)c(Cl)c2)C1 [Compound 14a, (4-(3,4-dichlorophenyl)-1,2,3,4-tetrahydronaphthalen-2-yl)methanamine] | 11 nM |

What follows are molecules tested against T3, recombinant human norepinephrine transporter (Homo sapiens, UniProt P23975) (assay: Norepinephrine functional uptake assay for human reuptake transporter). Conditions: Human IC50 (nM) NET, [3H]norepinephrine uptake, HEK293 or MDCK cells expressing human norepinephrine transporter.
T3 construct: expressed in transfected cells; host or cells: HEK293 or MDCK
Format: cell-based

| SMILES | IC50 |
| --- | --- |
| CN[C@H]1Cc2ccccc2[C@H](c2ccc(Cl)c(Cl)c2)C1 (single isomer, unassigned) [Compound 7b, 4-(3,4-dichlorophenyl)-N-methyl-1,2,3,4-tetrahydronaphthalen-2-amine] | 117 nM |
| CN[C@H]1Cc2ccccc2[C@H](c2ccc(Cl)c(Cl)c2)C1 (single isomer, unassigned) [Compound 7c, 4-(3,4-dichlorophenyl)-N-methyl-1,2,3,4-tetrahydronaphthalen-2-amine] | 45 nM |
| CN[C@H]1Cc2ccccc2[C@H](c2ccc(Cl)c(Cl)c2)C1 (single isomer, unassigned) [Compound 7d, 4-(3,4-dichlorophenyl)-N-methyl-1,2,3,4-tetrahydronaphthalen-2-amine] | 73 nM |

Same assay, conditions: [3H]norepinephrine uptake, HEK293 or MDCK cells expressing human norepinephrine transporter; read-out: Human IC50 (nM) NET

| SMILES | IC50 |
| --- | --- |
| CN[C@H]1Cc2ccccc2[C@H](c2ccc(Cl)c(Cl)c2)C1 [Compound 7a, 4-(3,4-dichlorophenyl)-N-methyl-1,2,3,4-tetrahydronaphthalen-2-amine] | 27 nM |
| NC[C@@H]1Cc2ccccc2[C@H](c2ccc(Cl)c(Cl)c2)C1 [Compound 14a, (4-(3,4-dichlorophenyl)-1,2,3,4-tetrahydronaphthalen-2-yl)methanamine] | 28 nM |
